{
  "source": "patent US10898579B2",
  "about": "“Conjugates of cysteine engineered antibodies” (priority 2015, dated 2021)",
  "molecules": {"B1": {"name": "huMOV19-C442-D5 (conjugate)", "heavy": "QVQLVQSGAEVVKPGASVKISCKASGYTFTGYFMNWVKQSPGQSLEWIGRIHPYDGDTFYNQKFQGKATLTVDKSSNTAHMELLSLTSEDFAVYYCTRYDGSRAMDYWGQGTTVTVSSASTKGPSVFPLAPSSKSTSGGTAALGCLVKDYFPEPVTVSWNSGALTSGVHTFPAVLQSSGLYSLSSVVTVPSSSLGTQTYICNVNHKPSNTKVDKKV[gap - human IgG1 Fc with changes]", "light": "DIVLTQSPLSLAVSLGQPAIISCKASQSVSFAGTSLMHWYHQKPGQQPRLLIYRASNLEAGVPDRFSGSGSKTDFTLTISPVEAEDAATYYCQQSREYPYTFGGGTKLEIKRTVAAPSVFIFPPSDEQLKSGTASVVCLLNNFYPREAKVQWKVDNALQSGNSQESVTEQDSKDSTYSLSSTLTLSKADYEKHKVYACEVTHQGLSSPVTKSFNRGEC"}, "B2": {"name": "huMOV19-D2 (conjugate)", "heavy": "QVQLVQSGAEVVKPGASVKISCKASGYTFTGYFMNWVKQSPGQSLEWIGRIHPYDGDTFYNQKFQGKATLTVDKSSNTAHMELLSLTSEDFAVYYCTRYDGSRAMDYWGQGTTVTVSSASTKGPSVFPLAPSSKSTSGGTAALGCLVKDYFPEPVTVSWNSGALTSGVHTFPAVLQSSGLYSLSSVVTVPSSSLGTQTYICNVNHKPSNTKVDKKV[gap - human IgG1 Fc with changes]", "light": "B1 light"}},
  "key": {"[1]": {"test_system": "cells that express folate receptor alpha (FRα) on their cell surface", "experiment": "In vitro cytotoxicity on multiple FRα+ cell lines, with and without FRα block", "format": "cell-based", "experimental": "The cell lines were cultured in culture medium as recommended by the cell supplier (ATCC or DSMZ). To each well of a flat bottom 96-well plate was added 1,000-2,000 cells in 100 μL of the culture medium. Conjugates were diluted into the culture medium using 3-fold dilution series and 100 μL were added per well. To determine the contribution of FRα-independent cytotoxicity, cells in some wells were pre-incubated with 2 μM huMOV19 antibody prior to the addition of conjugates (“blocked” or “+B”). Control wells containing cells and the medium but lacking the conjugates, as well as wells containing medium only, were included in each assay plate. Assays were performed in triplicate for each data point. The plates were incubated at 37° C. in a humidified 6% CO2 incubator for 5 to 6 days. Then the relative number of viable cells in each well was determined using either the Alamar Blue reagent according the manufacturer's protocol (Life Technologies) or the WST-8 based Cell Counting Kit-8 (Dojindo Molecular Technologies, Inc., Rockville, Md.). The apparent surviving fraction of cells in each well was calculated by first correcting for the medium background absorbance, and then dividing each value by the average of the values in the control wells (non-treated cells). The surviving fraction of cells was plotted against conjugate concentration in semi-log plots."}, "[2]": {"test_system": "NCI-H2110 human NSCLC cells", "experiment": "In vivo efficacy, NCI-H2110 NSCLC subcutaneous xenograft", "design": "species or system SCID mice", "settings": "single", "description": "SCID mice (24 animals) were inoculated with NCI-H2110 human NSCLC cells (1×10^7 cells/animal) injected subcutaneously into the right flank of the mice.\nDoses are given based on D2 or D5 concentration."}, "[3]": {"experiment": "Acute tolerability / MTD study, single dose", "format": "in vivo, female CD-1 mice", "settings": "for Mean % body weight loss at nadir / Result / day of death: qd ×1; for Drug death: qd ×1, based on D5 concentration, n=8", "experimental": "Female CD-1 mice, 7 weeks old, were received from Charles River Laboratories. Mice were housed for an acclimation period of at least 7 days upon arrival prior to study initiation.\nFor the MTD study, animals were randomized into groups (n=8) based on body weight. […] Administration of the drugs was carried out intravenously with a 1.0 mL syringe fitted with a 27 gauge, 2 inch needle. Body weight was measured daily for at least one week and then at least twice weekly for the remainder of the experiment. Body weights (BW) of mice were expressed as percent change in body weight from the pre-treatment body weight as follows: % BW change=[(BW post/BW pre)−1]×100 where “BW post” is weight after treatment, and “BW pre” is the starting body weight prior to treatment.\nPercent body weight loss (BWL) at nadir was expressed as the mean change in body weight post treatment. Animals were sacrificed if body weight dropped more than 20% of initial at any point in the study (1). Mice were also sacrificed if (2) one or both hind legs were paralyzed, or if (3) the animal was too sick to reach food and water."}},
  "data": [
    {"molecule": "B1", "values": [
      {"measurement": "activity compared with the Lys-linked conjugate", "setting": "[1]", "value": "at least as active as the Lys-linked huMOV19-D2 conjugate"},
      {"measurement": "Regressions CR", "setting": "[2]; huMOV19-C442-D5 2.6 μg/kg i.v.", "value": "0/6"},
      {"measurement": "Regressions PR", "setting": "[2]; huMOV19-C442-D5 2.6 μg/kg i.v.", "value": "0/6"},
      {"measurement": "Result", "setting": "[2]; huMOV19-C442-D5 2.6 μg/kg i.v.", "value": "Active"},
      {"measurement": "% T/C (Day 22)", "setting": "[2]; huMOV19-C442-D5 2.6 μg/kg i.v., dose based on D5 concentration", "value": 39, "unit": "%"},
      {"measurement": "Regressions CR", "setting": "[2]; huMOV19-C442-D5 8.7 μg/kg i.v.", "value": "6/6"},
      {"measurement": "Regressions PR", "setting": "[2]; huMOV19-C442-D5 8.7 μg/kg i.v.", "value": "6/6"},
      {"measurement": "Result", "setting": "[2]; huMOV19-C442-D5 8.7 μg/kg i.v.", "value": "Highly Active"},
      {"measurement": "% T/C (Day 22)", "setting": "[2]; huMOV19-C442-D5 8.7 μg/kg i.v., dose based on D5 concentration", "value": 2, "unit": "%"},
      {"measurement": "Mean % body weight loss at nadir", "setting": "[3]; 153 μg/kg i.v.", "value": 1.83, "unit": "%"},
      {"measurement": "Result", "setting": "[3]; 153 μg/kg i.v.", "value": "Tolerable"},
      {"measurement": "Drug death", "setting": "[3]; 153 μg/kg i.v.", "value": "0/8"},
      {"measurement": "Mean % body weight loss at nadir", "setting": "[3]; 175 μg/kg i.v.", "value": 7.11, "unit": "%"},
      {"measurement": "Result", "setting": "[3]; 175 μg/kg i.v.", "value": "MTD"},
      {"measurement": "day of death", "setting": "[3]; 175 μg/kg i.v.", "value": 11, "unit": "days"},
      {"measurement": "Drug death", "setting": "[3]; 175 μg/kg i.v.", "value": "1/8"},
      {"measurement": "Mean % body weight loss at nadir", "setting": "[3]; 218 μg/kg i.v.", "value": 10.32, "unit": "%"},
      {"measurement": "Result", "setting": "[3]; 218 μg/kg i.v.", "value": "Intolerable"},
      {"measurement": "day of death", "setting": "[3]; 218 μg/kg i.v.", "value": "10 to 13", "unit": "days"},
      {"measurement": "Drug death", "setting": "[3]; 218 μg/kg i.v.", "value": "4/8"}
    ]},
    {"molecule": "B2", "values": [
      {"measurement": "Regressions CR", "setting": "[2]; huMOV19-D2 2.7 μg/kg i.v.", "value": "0/6"},
      {"measurement": "Regressions PR", "setting": "[2]; huMOV19-D2 2.7 μg/kg i.v.", "value": "0/6"},
      {"measurement": "Result", "setting": "[2]; huMOV19-D2 2.7 μg/kg i.v.", "value": "Active"},
      {"measurement": "% T/C (Day 22)", "setting": "[2]; huMOV19-D2 2.7 μg/kg i.v., dose based on D2 concentration", "value": 32, "unit": "%"},
      {"measurement": "Regressions CR", "setting": "[2]; huMOV19-D2 8.9 μg/kg i.v.", "value": "6/6"},
      {"measurement": "Regressions PR", "setting": "[2]; huMOV19-D2 8.9 μg/kg i.v.", "value": "6/6"},
      {"measurement": "Result", "setting": "[2]; huMOV19-D2 8.9 μg/kg i.v.", "value": "Highly Active"},
      {"measurement": "% T/C (Day 22)", "setting": "[2]; huMOV19-D2 8.9 μg/kg i.v., dose based on D2 concentration", "value": 1, "unit": "%"}
    ]}
  ]
}
